# Screening data from PubChem BioAssay.
# Nrf2 activator – Nrf2 pathway activation. AREc32 ARE-luciferase reporter (MCF7-derived line), luminescence, 24 h. Potency, µM (titrated, usually from 46.1 µM), inactives show at the highest dose activation, usual class: activators. actives 0.31% (n = 410,000); note: potency is the fitted concentration of half-maximal effect; % of control where 0% means no effect; nearly all actives have a fitted effect of over 65% in size
#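 Reporter line AREc32 (ARE-Fluc), seeded overnight in OPTI-MEM with 5% FBS; compound pin-transferred, 24 hr at 37 deg C, 5% CO2; luminescent read-out.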
# A549 viability – counter-screen for Nrf2 inhibitors: cytotoxicity in A549 cells | Potency, µM (doses to about 46 µM), for the others: at the top dose activity change, negative = cytotoxicity, hits mostly inhibitors | actives 0.16% (n = 390,000) | A549 ARE-Fluc cells, CellTiter-Fluor viability, 18-24 h | AID 504648; note: potency is the fitted concentration of half-maximal effect; % is set by controls: 0 for no effect and ±100 for the full control effect
#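 Cytotoxicity counterscreen: CellTiter-Fluor fluorescence was measured in A549 ARE_Fluc cells after 18-24 h of compound exposure in a concentration series. The subsequent BugLite luminescent read reports ARE-luciferase activity.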
# ClpP mod – qHTS Assay for Activators of ClpP; ATP-dependent Clp protease proteolytic subunit (Bacillus subtilis (strain 168)), P80244; purified B. subtilis ClpP, FRET peptide cleavage, 20 min; Potency, µM (top dose mostly 57.5 µM), for the others: at the highest dose activity change, negative = active; actives 1.9% (n = 340,000); AID 651965, 2013; active = well fitted falling curve with a large enough effect; inconclusive = small, poorly fitted or top-dose-only effect; inactive = no such curve, though single readings can be large or run the other way; note: potency is the fitted concentration of half-maximal effect; the source files actives as falling curves though it sought activators and does not explain the sign; nearly all actives have a fitted effect of over 65% in size
#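 Purified B. subtilis ClpP, 10 microg/mL final in Tris/HCl pH8 with KCl, BSA, glycerol and Tween-20, cleaved an Abz/nitrotyrosine-quenched decapeptide. Fluorescence (ex 320, em 430) was read at 0 and 20 min at room temperature. Delta was normalized to 5.8 microM ADEP and DMSO/no-enzyme controls.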
# IL-2 act – activates IL-2 in a cell-based reporter assay; IL-2 activation reporter assay, cell-based qHTS; stimulated with anti-CD3/CD4/CD28 beads; in transgenic mouse T cells; activation, % (series mostly up to about 46 µM); actives 0.065% (n = 360,000); AID 652025; in the data active = activation above about 50%; inconclusive = mostly about 30% to 49%; note: 0% is about no effect
#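 Unstimulated transgenic mouse T cells; 60-min compound exposure; bead-based TCR/CD4/CD28 stimulation; 18 h culture, 37 degrees C; dual fluorescence (EGFP, DsRed) plate cytometry.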
# miR-21 FLuc – miR-21 reporter, rising signal; HeLa miR-21 FLuc reporter, luciferase, 48 h; Potency, µM (titrated, usually from 38.3 µM), without a hit: top-dose reporter change, positive = more light; AID 2288; 340,000 tested, under 10 active; active = well fitted rising curve with a large enough effect; inconclusive = small, poorly fitted or top-dose-only effect; inactive = no such curve, though single readings can be large or run the other way;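 further: % of control where 0% means no effect; miR-21 action dims this reporter so a rising signal means less miR-21 action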
#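 Compounds were titrated across several concentrations (up to approximately 40 uM) and incubated 48 hours with HeLa miR-21-FLuc reporter cells (miR-21 target sequence downstream of FLuc, endogenous miR-21). Readout was firefly luciferase luminescence after lytic detection reagent.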
# Nrf2 inh – Nrf2 pathway inhibition | A549 ARE-Fluc reporter, luciferase luminescence, 18-24 h | Potency, µM (top dose mostly 46 µM), for inactives: top-dose activity change, negative = inhibition, usual class: inhibitors | actives 2.1% (n = 360,000); note: potency is the fitted concentration of half-maximal effect; % is set by controls: 0 for no effect and ±100 for the full control effect; nearly all actives have a fitted effect of over 60% in size
#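 In this cell-based qHTS, ARE-driven firefly luciferase in A549 cells reports Nrf2 activity; the luminescent signal after BugLite lysis is the measured value, with a prior CellTiter-Fluor read for cell health.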
# The depositor's hits bear a star; ? = inconclusive; nt = not tested or not shown; [ ] = dose if it differs, or a comment. This is a sample that favours compounds with a hit; in the whole collection about 3.7% have one here. Unless noted, calls come from the whole dose curve; as a rule, active = well fitted curve in the direction sought with a large enough effect; inconclusive = small, poorly fitted or top-dose-only effect, or another doubt; inactive = no such curve, though single readings can be large; an effect the other way counts as inactive or inconclusive.
[1] COc1ccc(OC)c(NC(=O)N2CCC(CN3CCCCC3)CC2)c1
[2] [N-]=[N+]=CC(=O)CNC(=O)[C@@H](Cc1ccccc1)N1C(=O)c2ccccc2C1=O
[3] COc1ccc(OC)c(NC(=O)CSc2ncc3c(n2)-c2ccccc2N(C)S3(=O)=O)c1
[4] COc1cc(/C=C/C(=O)c2ccc3c(c2)OCCO3)cc(Br)c1OCC(=O)N(C)C
[5] O=C(/C=C/c1ccncc1)c1ccc2c(c1)OCCO2
[6] COc1cccc(-c2cc(C(F)(F)F)n3nc(C)c(-c4ccccc4)c3n2)c1
[7] COC(=O)c1ccc(OCC(=O)c2ccc(O)cc2O)cc1
[8] CCOC(=O)c1ccc(OCC(=O)c2ccc(O)cc2O)cc1

Assay by compound	1	2	3	4	5	6	7	8
Nrf2 activator	0.4%	-0.3%	1.0%	?	-1.9%	0.4%	-0.2%	-0.6%
A549 viability	4.3%	13µM*	-11.4%	?	1.2%	-4.3%	0.0%	-1.0%
ClpP mod	-0.2%	0.3%	-5.7%	nt	nt	2.2%	1.7%	0.1%
IL-2 act	nt	-0.6	nt	2.5	-0.5	nt	-2.6	0.0
miR-21 FLuc	-4.2%	0.1%	-7.9%	?	?	-0.7%	-35.5%	-32.1%
Nrf2 inh	?	nt	-12.9%	20.6µM*	?	?	8.2µM*	?

[9] O=C(COc1ccc(Cl)cc1)c1ccc(O)cc1O
[10] CC1=CC(=O)C(Sc2ccc(C)cc2)=CC1=O
[11] Cc1ccc(S(=O)(=O)SC/C=C/CSS(=O)(=O)c2ccc(C)cc2)cc1
[12] CCCC(c1nnnn1CC(=O)OCC)N(Cc1cc2ccc(C)cc2[nH]c1=O)C1CCCC1 (stereo not drawn)
[13] O=C(CC1C(=O)NCCN1Cc1ccc(-c2ccccc2)cc1)NCC1CC1 (stereo not drawn)
[14] CCCCn1c(NCc2cc(Cl)ccc2O)nc2ccccc21
[15] CC/C(=N/Nc1cccc(C)c1)c1cnnc(SC)n1
[16] O=C(NCC(c1ccc2c(c1)OCO2)N1CCOCC1)c1c(F)cccc1F (stereo not drawn)

Assay by compound	9	10	11	12	13	14	15	16
Nrf2 activator	3.4%	12.6µM*	6.6%	-0.9%	1.9%	6.2%	6.9%	1.1%
A549 viability	-15.4%	nt	-5.6%	7.0%	?	-0.1%	-7.2%	7.6%
ClpP mod	nt	-2.0%	-21.5%	17.8µM*	nt	0.2%	-2.1%	-3.5%
IL-2 act	-2.1	-4.4	-0.6	0.5	0.3	nt	189.6*	nt
miR-21 FLuc	-49.7%	nt	nt	-4.6%	-0.1%	13.1%	-23.0%	-9.9%
Nrf2 inh	7.31µM*	nt	11.6µM*	nt	23.1µM*	nt	-9.4%	nt

[17] Clc1nnc(N2CCCCC2)c2ccccc12
[18] c1csc(-c2nnc(N3CCOCC3)c3ccccc23)c1
[19] c1csc(-c2nnc(N3CCCCCC3)c3ccccc23)c1
[20] N#Cc1nc(-c2ccc(OCc3ccccc3)cc2)oc1NCc1cccnc1
[21] COc1ccc(OCc2ccc(-c3nc(C#N)c(N4CCC(C(N)=O)CC4)o3)o2)cc1
[22] Cc1ccc(OCc2ccc(-c3nc(C#N)c(N4CCC(C)CC4)o3)o2)cc1
[23] N#Cc1nc(-c2ccc(COc3ccccc3)o2)oc1NCc1ccccc1
[24] CN(C)c1oc(-c2ccc(OCc3ccccc3)cc2)nc1C#N

Assay by compound	17	18	19	20	21	22	23	24
Nrf2 activator	-0.5%	-0.6%	12.6µM*	6.0%	-1.4%	0.1%	0.6%	5.1%
A549 viability	0.9%	1.8%	0.1%	-9.5%	-3.5%	5.6%	-1.7%	4.6%
ClpP mod	nt	nt	nt	?	35.5µM*	4.2%	20µM*	12.6µM*
IL-2 act	0.5	-0.2	-3.7	1.1	nt	nt	nt	-2.9
miR-21 FLuc	-38.4%	-24.0%	-35.0%	-2.3%	1.8%	-8.4%	7.2%	-46.1%
Nrf2 inh	16.4µM*	?	8.7%	?	-26.5%	-16.1%	-27.3%	20.0%

[25] COc1ccc(OCc2ccc(-c3nc(C#N)c(N4CCC(C)CC4)o3)o2)cc1
[26] CCCCNC(=O)C(CC)Sc1nnc(-c2cccc(F)c2)c(-c2cccc(F)c2)n1 (stereo not drawn)
[27] COC(=O)C[C@H]1c2cc(C(F)(F)F)ccc2S(=O)(=O)N1C(C)C
[28] N#Cc1nc(-c2ccc(OCc3ccc(Cl)cc3)cc2)oc1NCc1cccnc1
[29] CC1CCN(c2oc(-c3ccc(COc4ccccc4)o3)nc2C#N)CC1
[30] N#Cc1nc(-c2ccc(COc3ccccc3)o2)oc1N1CCN(c2ccccc2)CC1
[31] COc1ccc(NC(=O)Cn2nnnc2-c2ccccc2F)c(C)c1
[32] Cc1cccc(CSC(=N)N)c1

Assay by compound	25	26	27	28	29	30	31	32
Nrf2 activator	0.9%	11.0%	nt	0.6%	-1.3%	0.4%	0.2%	-0.1%
A549 viability	3.8%	-26.1%	nt	-9.5%	-2.8%	0.2%	16.7%	-14.8%
ClpP mod	25.1µM*	-2.4%	3.2%	28.2µM*	15.8µM*	15.8µM*	-0.4%	12.6µM*
IL-2 act	nt	nt	nt	1.4	nt	nt	nt	-0.7
miR-21 FLuc	-11.6%	?	nt	-31.0%	-14.1%	-2.1%	1.2%	-2.7%
Nrf2 inh	-32.1%	nt	nt	-1.8%	-18.8%	0.1%	22.1%	-22.1%

# One compound at a time, from the list above. Screens in order: Nrf2 activator | A549 viability | ClpP mod | IL-2 act | miR-21 FLuc | Nrf2 inh
# N#Cc1nc(-c2ccc(OCc3ccc(Cl)cc3)cc2)oc1NCc1cccnc1 across the screens: 0.6% | -9.5% | 28.2µM* | 1.4 | -31.0% | -1.8%
# COc1ccc(OCc2ccc(-c3nc(C#N)c(N4CCC(C)CC4)o3)o2)cc1 across the screens: 0.9% | 3.8% | 25.1µM* | nt | -11.6% | -32.1%
# N#Cc1nc(-c2ccc(COc3ccccc3)o2)oc1N1CCN(c2ccccc2)CC1 across the screens: 0.4% | 0.2% | 15.8µM* | nt | -2.1% | 0.1%

# (next part)
[33] N=C(N)SCCc1cccc(CCSC(=N)N)c1
[34] O/N=C(/CI)c1ccc2ccccc2c1
[35] CS(=O)(=O)Nc1ccccc1C(=O)Nc1ccccc1Cl
[36] CS(=O)(=O)Nc1ccccc1C(=O)Nc1cc(Cl)cc(Cl)c1
[37] CS(=O)(=O)Nc1ccccc1C(=O)NC1CC2CCC1C2 (stereo not drawn)
[38] COCCCNC(=O)c1ccccc1NS(C)(=O)=O
[39] CCOC(=O)c1c(NC(=O)c2cc3nc(-c4ccc(Br)cc4)cc(C(F)(F)F)n3n2)sc(C(C)=O)c1C
[40] CCOC(=O)c1ccc(NC(=O)N2CCOc3ccccc32)cc1

Assay by compound	33	34	35	36	37	38	39	40
Nrf2 activator	1.2%	nt	-0.6%	-0.5%	0.1%	-0.5%	-0.1%	5.2%
A549 viability	-5.6%	nt	-16.8%	-23.8%	14.4%	1.1%	3.9%	-4.4%
ClpP mod	1.6%	-7.3%	-29.2%	14.1µM*	35.5µM*	28.2µM*	-3.9%	-1.0%
IL-2 act	0.3	nt	-1.7	-3.8	0.0	-2.6	nt	nt
miR-21 FLuc	nt	nt	-4.7%	2.6%	-3.8%	-8.1%	1.5%	-0.7%
Nrf2 inh	8.9%	nt	-18.4%	13µM*	11.5%	3.0%	nt	?

[41] N#CC1=C(N)SC(N)=C(C#N)C1CCc1ccccc1
[42] COc1ccc(Oc2nc(-c3ccccn3)ncc2OC)cc1
[43] COc1cnc(-c2ccccn2)nc1N(C)C
[44] Cc1ccc(CCS(=O)(=O)c2ccc(C(C)(C)C)cc2)cn1
[45] CC(C)(C)c1ccc(S(=O)(=O)CCc2ccccn2)cc1
[46] CCn1c(CNC(=O)COc2ccc(C(C)C)cc2)nnc1SCC(=O)Nc1ccccc1C(C)C
[47] Cc1cccc(-n2c(SCN3C(=O)c4ccccc4C3=O)nc3ccccc3c2=O)c1
[48] CCCn1c(SCN2C(=O)c3ccccc3C2=O)nc2cc(Cl)ccc2c1=O

Assay by compound	41	42	43	44	45	46	47	48
Nrf2 activator	9.8%	-1.2%	0.1%[9.22 µM]	-0.8%	0.3%	2.7%	nt	0.6%
A549 viability	-2.6%	-13.7%	?	-3.8%	3.7%	-22.1%	nt	-1.8%
ClpP mod	31.6µM*	nt	nt	0.7%	-1.5%	-1.3%	nt	25.1µM*
IL-2 act	0.9	0.1	-1.9	-1.4	-0.4	1.6	nt	0.4
miR-21 FLuc	10.6%	3.9%	14.2%	10.7%	-57.3%	17.1%	1.6%	-3.3%
Nrf2 inh	-24.5%	-21.8%	8.2µM*	8.2µM*	?	16.4µM*	nt	10.9%
